Results taken from patent US8278310B2, “Amine salts of a CRTH2 antagonist” (Actimis Pharmaceuticals, Inc., priority 2007, dated 2012).

Assay: Aqueous solubility of the salts from base screening
Conditions: salt of the acid of Formula I with the named base

For “Choline Salt of {4,6-Bis(dimethylamino)-2-(4-(4-(trifluoromethyl)benzamido)benzyl)pyrimidin-5-yl}Acetic Acid”, the “Aqueous Solubility at 25° C.” value was 24.0 mg/mL.
